This note sets out measurements from patent publication US20240239801A1, “PYRIMIDO[5,4,D]PYRIMIDINE COMPOUNDS, COMPOSITIONS COMPRISING THEM AND USES THEREOF” (Université de Montréal, priority 2021, published 2024).

Chains of the proteins cited; added tags and fusions are not shown.
UniProt P15056, whole entry: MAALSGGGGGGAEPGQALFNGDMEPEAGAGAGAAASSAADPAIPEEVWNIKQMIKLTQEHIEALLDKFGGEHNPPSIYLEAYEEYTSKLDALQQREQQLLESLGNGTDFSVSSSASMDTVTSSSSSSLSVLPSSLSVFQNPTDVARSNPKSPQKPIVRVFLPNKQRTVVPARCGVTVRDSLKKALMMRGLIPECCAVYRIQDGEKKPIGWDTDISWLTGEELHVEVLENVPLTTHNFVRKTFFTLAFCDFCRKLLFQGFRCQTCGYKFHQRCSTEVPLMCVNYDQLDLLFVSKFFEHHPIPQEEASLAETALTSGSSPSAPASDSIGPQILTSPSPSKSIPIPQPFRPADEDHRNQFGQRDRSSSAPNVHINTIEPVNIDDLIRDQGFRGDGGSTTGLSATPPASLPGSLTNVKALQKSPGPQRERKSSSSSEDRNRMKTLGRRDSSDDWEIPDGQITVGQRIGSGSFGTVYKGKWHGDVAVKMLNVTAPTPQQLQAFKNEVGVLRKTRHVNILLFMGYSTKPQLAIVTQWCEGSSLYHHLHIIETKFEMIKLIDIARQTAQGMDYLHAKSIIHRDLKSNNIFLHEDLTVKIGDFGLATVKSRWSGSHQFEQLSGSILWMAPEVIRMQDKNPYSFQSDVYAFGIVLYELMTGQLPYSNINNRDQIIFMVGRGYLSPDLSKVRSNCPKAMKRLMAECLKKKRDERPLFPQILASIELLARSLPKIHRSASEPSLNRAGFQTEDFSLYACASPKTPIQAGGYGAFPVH
UniProt P04049, whole entry: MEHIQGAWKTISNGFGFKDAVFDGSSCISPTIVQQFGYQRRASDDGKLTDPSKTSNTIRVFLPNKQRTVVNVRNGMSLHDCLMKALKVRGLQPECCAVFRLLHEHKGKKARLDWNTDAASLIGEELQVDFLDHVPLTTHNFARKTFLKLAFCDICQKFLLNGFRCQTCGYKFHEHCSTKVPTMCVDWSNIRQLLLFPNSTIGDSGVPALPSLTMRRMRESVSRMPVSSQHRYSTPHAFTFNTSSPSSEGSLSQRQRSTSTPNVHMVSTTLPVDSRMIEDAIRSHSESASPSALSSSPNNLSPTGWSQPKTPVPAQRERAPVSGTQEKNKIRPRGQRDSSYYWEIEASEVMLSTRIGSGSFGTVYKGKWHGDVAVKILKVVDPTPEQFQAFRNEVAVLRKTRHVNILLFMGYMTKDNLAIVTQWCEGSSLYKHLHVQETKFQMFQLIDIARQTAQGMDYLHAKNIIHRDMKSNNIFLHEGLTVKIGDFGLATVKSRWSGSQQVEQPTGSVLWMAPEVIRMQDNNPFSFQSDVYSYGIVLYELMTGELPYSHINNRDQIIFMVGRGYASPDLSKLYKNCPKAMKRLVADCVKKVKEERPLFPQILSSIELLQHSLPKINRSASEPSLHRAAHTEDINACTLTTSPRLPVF

Each structure is given as a SMILES string. Where two headings read alike, the source gives them in different places.

The target of experiment [1] is BRAF (Homo sapiens, UniProt P15056). As to the kind of experiment: BRAF kinase activity assay (ADP-Glo). Particulars: read-out: Kinase IC50 BRAF. As for the experimental part:
(§1) Compound preparation: solid samples of each substances in 1dram vials were suspended in DMSO (Fisher Scientific) at a stock concentration of 20 mM. Stocks were kept at −20° C. and protected from light. If solubility of the compound at 20 mM appeared to be an issue, the initial concentration of the DMSO stock was changed to 10 mM or 5 mM.
(§2) In vitro enzymatic reactions were used for evaluating compounds intrinsic activity against BRAF, CRAF and ARAF. For BRAF and CRAF, 0.375 nM of purified GST-tagged kinases (cat #B4062-10UG and cat #R1656-10UG respectively from Millipore Sigma) were incubated with 75 nM of kinase-dead MEK1 substrate (cat #40075; BPS Bioscience) in the presence of 10 μM of Ultrapure ATP (cat #V9102; Promega; part V915A) with and without the test compound in a buffer containing 50 mM HEPES pH 7.5, 10 mM MgCl2, 1 mM EDTA, 0.01% Brij-35 and 2 mM DTT. Separate reactions were performed with the MEK1 substrate and ATP as a blank control. ARAF, kinase reactions were rigorously the same with the exception that kinase concentration was raised to 3.75 nM (cat #1768-0000-1; Reaction Biology).
(§3) For compound treatment, 5 μL/well of test substance solution are placed in a 384-well proxyplate (Perkin Elmer) and mixed with 2× concentrated kinase reactions. The dilution series is selected so that nine concentrations cover a range from 100 nM to 0.01 nM. […] The final concentration of DMSO in the assay is set at 0.05%.
(§4) BRAF and CRAF kinase reactions were carried out for a total of 2 hours at 30° C. and then stopped by ½ dilution in ADP-Glo Reagent (cat #V9102; Promega; part V912C). Reactions were then incubated for 1 h at room temperature before addition of one volume of Kinase Detection Reagent (cat #V9102; Promega; part V917A). Plates were then equilibrated at room temperature for 30 minutes before detection of luminescence on a Synergy Neo2 plate reader (Biotek). The effect of each compound dilution on BRAF and CRAF kinase activity was expressed as % inhibition and calculated as follows. First, the internal 100% inhibition control (average of luminescence in kinase reactions comprising kinase dead MEK1 substrate alone) was subtracted from each data point. The average of DMSO (vehicle) controls (set as 0% inhibition) was established and used to calculate % inhibition:
(§5) IC50 values were obtained by plotting the kinase inhibition values and fitting the dose-activity curves using a log(agonist) versus response−variable slope (four parameters) function using either GraphPadPrism (V7.0) or Dotmatics Screening Ultra platform. Standards included in the ARAF kinase assay were Belvarafenib (MedChem Express cat #HY-109080; CAS #1446113-23-0), LXH254 (MedChem Express cat #HY-112089; CAS #1800398-38-2) and BGB283 (cat #HY-18957; CAS #1446090-79-4).

Experiment [2] addresses CRAF (Homo sapiens, UniProt P04049). As to the kind of experiment: CRAF kinase activity assay (ADP-Glo). The note with it: read-out: Kinase IC50 CRAF. As for the experimental part: as §1, §2, §3, §4, §5
Experiment [3] relates to HCT116 pERK. As to the kind of experiment: Phospho-ERK inhibition, AlphaLISA SureFire Ultra p-ERK 1/2. Particulars: for HCT116 (Ymin %): lowest value of the pERK IC50 curve; for IC50: read-out: HCT116 PERK IC50; for HCT116 pERK % Ymin (lowest value of the IC50 curve): value in brackets, Ymin above −20% = minimal or no paradoxical induction. As for the experimental part:
All cancer cell lines (A375, A101D, A2058, RKO, HT29 SK-MEL 30, IPC298, HepG2, HCT-116, Lovo, SW620, SW480, NCI-H358, NCI-H2122, Calu-6, NCIH2087, NCIH1755, NCIH1666 and Mewo) were obtained from ATCC and cultured in RPMI-1640 medium (Gibco) supplemented with 5% heat inactivated fetal bovine serum (FBS, Wisent) at 37° C. under 5% CO2. Cells were maintained in T175 flasks (Greiner). They were passaged by removing the culture medium, washing once in 10 mL of room temperature Phosphate Buffered Saline (PBS; Wisent) and incubating at 37° C. with 2 mL of 0.05% Trypsin (Thermo-Fisher). Trypsin was then inactivated by adding complete growth medium and the cells were then replated in a T175 culture dish at the appropriate dilution. All cell lines were routinely tested for mycoplasma contamination. Tissue type and mutational status of each cell line can be found in Table B.
AlphaLISA® SureFire® Ultra™ p-ERK ½ (Thr202/Tyr204) analysis was conducted on cells plated in 100 μL of complete RPMI-1640 growth medium in 96-well flat-bottomed transparent dishes (Costar) at a density indicated in Table C. Cells were maintained overnight at 37° C. under 5% CO2 before treatment with compounds' dilution series for one hour. The cell density in cells/cm^2 corresponds to cell number divided by the area of one well of a 96-well plate ([…]).
In a dilution series 100 μL/well of test substance dilution prepared in complete RPMI-1640 growth media was added to the cells. The dilution series is selected so that ten concentrations cover a range from 30 μM or 10 μM to 0.33 nM. If necessary, the initial concentration of 10 μM is increased to 100 μM or lowered to 1 μM (as in the case of A375 and NCIH1666 cells, which are generally more sensitive to the compounds) and further dilution is carried out accordingly. The final concentration of DMSO in the assay is set at 0.5%.
After treatment, media was removed, and cells were lysed in 50 μL of 1× AlphaScreen Ultra Lysis Buffer (Perkin Elmer). The AlphaLISA® SureFire® Ultra™ p-ERK ½ (Thr202/Tyr2O4) (PerkinElmer) reactions were performed with 5 μL of cell lysate according to the manufacturer's specifications in 384-well proxyplates (Perkin Elmer) followed by overnight incubation of the reactions at room temperature in a humidified chamber. After completion of the reactions, the signals were recorded on an EnVision plate reader (Perkin Elmer) using built in AlphaLISA® settings.
The effect of each compound dilution on the pERK signal was expressed in % inhibition and calculated as follows. An internal 100% inhibition control (1 μM trametinib, cat. No. HY-10999; MedChem Express; CAS No. 871700-17-3) was included in each plate and used as a measure of pERK background. First, the value obtained for trametinib was subtracted from each data point. The average of DMSO (vehicle) controls (set as 0% inhibition) was established and used to calculate % inhibition:
The ability of each compound to inhibit pERK signal was expressed as an IC50 value obtained by plotting the inhibition values for each data point of a dilution series and fitting the obtained curves using a log(agonist) versus response−variable slope (four parameters) function using GraphPadPrism (V7.0).
When present, paradoxical pERK induction is inferred from the negative % inhibition values observed in the pERK IC50 curves of a compound.

In the case of `CCC1(O)CCN(c2cccc3c2ncn3-c2ncc3ncnc(Nc4c(F)ccc(NS(=O)(=O)c5scc(Cl)c5Cl)c4F)c3n2)CC1`, the IC50 in experiment [1] (Table 3) was 1 to 10 nM; in experiment [2] (Table 3), < 10 nM; in experiment [3] (Table 3, 1 h treatment), < 500 nM. Moreover, the “HCT116 (Ymin %)” value in experiment [3] (Table 3) was found to be 5%.
Consider `O=S(=O)(Nc1ccc(F)c(Nc2ncnc3cnc(-n4cnc5c(F)cccc54)nc23)c1F)c1cccc(Cl)c1Cl`, for which the IC50 in experiment [1] (Table 3) is 1 to 10 nM; in experiment [2] (Table 3) it was < 10 nM; in experiment [3] (Table 3, 1 h treatment), 1000 to 10000 nM. The “HCT116 (Ymin %)” value in experiment [3] (Table 3) came to 3%.
For `Cc1c(F)cccc1S(=O)(=O)Nc1ccc(F)c(Nc2ncnc3cnc(-n4cc(S(=O)(=O)N(C)CCN(C)C)c5ccccc54)nc23)c1F`, in that order: < 1 nM, < 10 nM, < 500 nM and −3%.
Take `CCC1(O)CCN(c2cccc3c2ncn3-c2ncc3ncnc(Nc4c(F)c(F)cc(NS(=O)(=O)c5cccc(Cl)c5Cl)c4F)c3n2)CC1`: the 50% inhibitory concentration (IC50) in experiment [1] (BRAF biochemical kinase assay) is 1 to 10 nM; in experiment [2] (CRAF biochemical kinase assay) it was < 10 nM; in experiment [3] (HCT116 cells, pERK) it was < 500 nM. For the same molecule, the “HCT116 pERK % Ymin (lowest value of the IC50 curve)” value in experiment [3] (HCT116 cells) was −9%.
Regarding `O=S(=O)(Nc1cc(F)c(F)c(Nc2ncnc3cnc(-n4cnc5c(N6CCC[C@H](O)C6)cccc54)nc23)c1F)c1cccc(Cl)c1Cl`, the IC50 in experiment [1] (BRAF biochemical kinase assay) is 1 to 10 nM; in experiment [2] (CRAF biochemical kinase assay), < 10 nM; in experiment [3] (HCT116 cells, pERK), < 500 nM. For the same molecule, the “HCT116 pERK % Ymin (lowest value of the IC50 curve)” value in experiment [3] (HCT116 cells) is on record as −14%.
Turning to `CN(C)CCN(C)S(=O)(=O)c1cn(-c2ncc3ncnc(Nc4c(F)ccc(NS(=O)(=O)c5cccc(Cl)c5Cl)c4F)c3n2)c2ccccc12`, the IC50 in experiment [1] (Table 3) was < 1 nM; in experiment [2] (Table 3), < 10 nM; in experiment [3] (Table 3, 1 h treatment), < 500 nM. For the same molecule, in experiment [3] (Table 3), the “HCT116 (Ymin %)” value is given as −4%.
On to `Cc1c(Cl)cccc1S(=O)(=O)Nc1ccc(F)c(Nc2ncnc3cnc(-n4cc(S(=O)(=O)N(C)CCN(C)C)c5ccccc54)nc23)c1F`, for which the IC50 in experiment [2] (Table 3) is < 10 nM; in experiment [3] (Table 3, 1 h treatment), 500 to 1000 nM. For the same molecule, the “HCT116 (Ymin %)” value in experiment [3] (Table 3) is given as −5%.
For `COc1ccc(S(=O)(=O)Nc2ccc(F)c(Nc3ncnc4cnc(-n5cc(S(=O)(=O)N(C)CCN(C)C)c6ccccc65)nc34)c2F)c(C)c1F`, the IC50 is 1 to 10 nM in experiment [1] (Table 3); 10 to 50 nM in experiment [2] (Table 3); < 500 nM in experiment [3] (Table 3, 1 h treatment). Besides, in experiment [3] (Table 3), the “HCT116 (Ymin %)” value is −4%.
